# Literature values as cited in patent publication US9532949B2, “Intraperitoneally-administered nanocarriers that release their therapeutic load based on the inflammatory environment of cancers” (STC.UNM, priority 2011, dated 2017).
# Conditions: TX 100 considered as 100% lysis; cited from earlier work
structure (smiles),measurement,value
CC[C@H](C)[C@H](NC(=O)CN)C(=O)NCC(=O)N[C@@H](C)C(=O)N[C@H](C(=O)N[C@@H](CC(C)C)C(=O)N[C@@H](CCCCN)C(=O)N[C@H](C(=O)N[C@@H](CC(C)C)C(=O)N[C@H](C(=O)N[C@H](C(=O)NCC(=O)N[C@@H](CC(C)C)C(=O)N1CCC[C@H]1C(=O)N[C@@H](C)C(=O)N[C@@H](CC(C)C)C(=O)N[C@H](C(=O)N[C@@H](CO)C(=O)N[C@@H](Cc1c[nH]c2ccccc12)C(=O)N[C@H](C(=O)N[C@@H](CCCCN)C(=O)N[C@@H](CCCNC(=N)N)C(=O)N[C@@H](CCCCN)C(=O)N[C@@H](CCCNC(=N)N)C(=O)N[C@@H](CCC(N)=O)C(=O)N[C@@H](CCC(N)=O)C(N)=O)[C@@H](C)CC)[C@@H](C)CC)[C@@H](C)O)[C@@H](C)O)C(C)C)C(C)C [melittin],Lysis of lipid bilayers relative to TX 100,70-80%
